The text below walks through data of PubChem BioAssay AID1448 (The Scripps Research Institute Molecular Screening Center, 2008).

Sequences of proteins named here, by UniProt entry; tags and fusion partners are left off.
UniProt Q8TDD5, whole entry: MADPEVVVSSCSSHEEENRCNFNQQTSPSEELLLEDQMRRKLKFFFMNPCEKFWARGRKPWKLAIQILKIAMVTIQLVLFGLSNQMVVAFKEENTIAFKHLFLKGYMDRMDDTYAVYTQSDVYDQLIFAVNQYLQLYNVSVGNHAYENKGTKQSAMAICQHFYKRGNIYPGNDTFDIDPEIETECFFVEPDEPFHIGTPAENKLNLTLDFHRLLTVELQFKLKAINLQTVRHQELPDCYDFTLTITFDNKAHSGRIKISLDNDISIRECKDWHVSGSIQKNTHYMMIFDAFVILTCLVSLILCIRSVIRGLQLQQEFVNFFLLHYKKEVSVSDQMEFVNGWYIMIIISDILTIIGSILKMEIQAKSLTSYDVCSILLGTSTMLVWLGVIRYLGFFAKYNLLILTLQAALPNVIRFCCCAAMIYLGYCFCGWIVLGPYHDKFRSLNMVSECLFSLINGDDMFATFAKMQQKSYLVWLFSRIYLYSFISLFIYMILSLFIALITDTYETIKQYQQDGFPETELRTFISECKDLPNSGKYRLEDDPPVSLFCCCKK

Only a part is listed here, and it is no random draw. Some tests of the compounds listed are not included; inactive here does not mean inactive elsewhere. Active and inactive are the calls of the source.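 Rule for the calls: active = activation above its plate's cutoff, the mean activation of the plate's test wells plus 3 SD (cut at about 12% in these data); inactive = the rest.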

The target of this experiment is Mucolipin-3 (Homo sapiens) (UniProt Q8TDD5). Briefly: human TRPML3 channel agonists, primary screen, cell-based, HEK293 TRPML3-YFP, Fluo-8 calcium fluorescence, 3 µM (AID 1448).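 Note: 0% = DMSO only wells and 100% = carbachol wells.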 The following applies: at 3 µM, active compounds read high, 100% = the carbachol control signal. In outline: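 system = HEK293 cells stably carrying human TRPML3-YFP | doses = one concentration, 3 µM nominal, 0.3% DMSO | timing = dye loading 1 h 37 °C then 30 min ambient, 125 s read | detection = Fluo-8 calcium dye fluorescence, ex 470-495, em 515-575 nm | benchmarks = high control carbachol 87 µM, low control DMSO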
For the molecule `CCN1CCCC(OC(=O)C2(O)c3ccccc3C=Cc3ccccc32)C1` (stereo unspecified), the activation was inactive: 0.44%. As for `C=CCN1CCN(CCOC(=O)C(O)(c2ccccc2)c2ccccc2)CC1`, the figure is inactive: 0.34%; as for `CN(C)C1CCCC1OC(=O)C(O)(c1ccccc1)c1ccccc1` (stereo unspecified), inactive: 0.51%.

On to `Cc1ccccc1C(=O)NCC1(N2CCCCC2)CCCCC1`, for which the activation is inactive: 1.27%. As for `CCN(CC)CC(C)C(C)OC(=O)C(O)(c1ccccc1)c1ccccc1` (stereo unspecified), the figure is inactive: 0.8%; as for `CC(C)N1C(=O)CC2(CCN(CCOC(=O)C(O)(c3ccccc3)c3ccccc3)CC2)C1=O`, inactive: 0.56%; as for `O=C(NCC1(N2CCCCC2)CCCCC1)c1cc([N+](=O)[O-])ccc1Cl`, inactive: 0.44%. As for `CN(C)c1cccc(C(=O)NCC2(N(C)C)CCCCC2)c1`, the figure is inactive: 0.15%. The value for `COc1ccc(Br)c(C(=O)NCC2(N3CCCCC3)CCCCC2)c1` was inactive: -0.83%; that for `O=C(OC1CN2CCC1CC2)C(CO)(c1ccccc1)c1ccccc1` (stereo unspecified) was inactive: -0.04%. As to `COc1cccc(C(=O)NCC2(N3CCCCC3)CCCCC2)c1`, the activation is inactive: -0.27%.
